For this assay, the target named is T1, PTH1R (Homo sapiens, UniProt Q03431).
T1 construct: expressed in transfected cells; host or cells: HEK 293T
T1 sequence (Q03431 27-593): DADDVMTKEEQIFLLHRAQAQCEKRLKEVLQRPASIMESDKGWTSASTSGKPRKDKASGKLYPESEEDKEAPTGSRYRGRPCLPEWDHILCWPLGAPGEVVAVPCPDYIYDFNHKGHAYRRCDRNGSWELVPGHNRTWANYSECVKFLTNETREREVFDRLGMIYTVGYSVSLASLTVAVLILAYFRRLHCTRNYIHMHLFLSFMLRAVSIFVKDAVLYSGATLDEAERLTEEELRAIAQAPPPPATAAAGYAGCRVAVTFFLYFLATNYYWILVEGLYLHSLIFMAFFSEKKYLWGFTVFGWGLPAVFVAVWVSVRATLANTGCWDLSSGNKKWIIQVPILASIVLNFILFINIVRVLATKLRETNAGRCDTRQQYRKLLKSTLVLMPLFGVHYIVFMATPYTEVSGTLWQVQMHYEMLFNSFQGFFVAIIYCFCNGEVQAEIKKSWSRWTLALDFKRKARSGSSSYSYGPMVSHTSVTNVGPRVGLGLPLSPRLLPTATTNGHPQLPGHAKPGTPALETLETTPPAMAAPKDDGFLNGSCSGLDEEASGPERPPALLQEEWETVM
The experiment in a line: InsP1 accumulation, PTH1R. The format is cell-based. The following applies: PTH1R Wild-Type; [Isoproterenol] log(M) -9.30103.

Where a name gives a salt, the structure may show the parent alone.

On to `CC(C)NCC(O)c1ccc(O)c(O)c1` (stereo not drawn) [Isoproterenol, isoproterenol (+)-bitartrate salt], for which the “IP1 (AU), Average” value is 0.0339 AU.

Values taken from publication PMC10033409, “Autoregulation of GPCR signalling through the third intracellular loop” (Nature, 2023).
